# System: 43-mer covering the stalk region of CD95L (residue 103 to residue 145)
substance,measurement,value
MMP13,percentage of degradation of the 43-mer (LC-MS/MS),more of 20% of cleavage

# Source: patent US20250163169
